Data as given in patent US20250177353A1 (priority 2021, published 2025).

Assays:
[1] = SAD phase I study: safety and tolerability; details: single oral doses of 30-1400 mg
[2] = test system: mouse model of NASH (DIAMOND™ mice); assay: Mouse model of NASH (DIAMOND mice), oral administration
[3] = Single-dose tolerability and repeat-dose toxicity, mice; details: 7-days
[4] = Single-dose tolerability and repeat-dose toxicity, rats; details: up to 63-days
[5] = MAD phase I study: safety, body temperature, heart rate
[6] = Assessment of food effect (500 mg, fed versus fasted crossover, Cohort 4)
[7] = 200 mg QD oral, high BMI subjects

Question: What does the source list for `Cn1c(COc2ccc([N+](=O)[O-])cc2[N+](=O)[O-])cnc1[N+](=O)[O-]`?
Answer: Serious Adverse Events (SAEs) [1]: no Serious Adverse Events (SAEs) reported; safety and tolerability [1]: safe and well tolerated; dose level demonstrating efficacy [2]: 5 mg/kg/day; well tolerated dose [3]: up to 100 /kg/day; well tolerated dose [4]: ≤ 120 mg/kg/day; SAEs [5, 7]: no SAEs; tolerability [5, 7]: tolerated; body temperature ([5]; MAD QD dosing period (FIG. 6)): no significant increase in body temperature; heart rate ([5]; MAD study (FIG. 12)): not accompanied with an increase in heart rate; Compound 1 AUC0-24h geometric mean ratio (90% CI) of Fed versus Fasted ([6]; 500 mg single oral dose): 5.11 (1.75-14.9); Compound 1 AUClast geometric mean ratio (90% CI) of Fed versus Fasted ([6]; 500 mg single oral dose): 4.19 (2.75-6.39); Compound 1 Cmax geometric mean ratio (90% CI) of Fed (test) versus Fasted (reference) ([6]; 500 mg single oral dose): 1.82 (1.30-2.56); AUC increase under fed conditions relative to fasted conditions ([6]; standard high fat (50%) meal, 500 mg Compound 1): > 4.0 fold
